Assay results from US9109043B2 (Tokyo Institute of Technology, priority 2010, dated 2015).

Protein sequences, listed by entry. Tags and fused reporters are not part of them. Lines headed by an entry give the natural chain unless they say otherwise; changes in a name come on top.
UniProt Q6P5E4: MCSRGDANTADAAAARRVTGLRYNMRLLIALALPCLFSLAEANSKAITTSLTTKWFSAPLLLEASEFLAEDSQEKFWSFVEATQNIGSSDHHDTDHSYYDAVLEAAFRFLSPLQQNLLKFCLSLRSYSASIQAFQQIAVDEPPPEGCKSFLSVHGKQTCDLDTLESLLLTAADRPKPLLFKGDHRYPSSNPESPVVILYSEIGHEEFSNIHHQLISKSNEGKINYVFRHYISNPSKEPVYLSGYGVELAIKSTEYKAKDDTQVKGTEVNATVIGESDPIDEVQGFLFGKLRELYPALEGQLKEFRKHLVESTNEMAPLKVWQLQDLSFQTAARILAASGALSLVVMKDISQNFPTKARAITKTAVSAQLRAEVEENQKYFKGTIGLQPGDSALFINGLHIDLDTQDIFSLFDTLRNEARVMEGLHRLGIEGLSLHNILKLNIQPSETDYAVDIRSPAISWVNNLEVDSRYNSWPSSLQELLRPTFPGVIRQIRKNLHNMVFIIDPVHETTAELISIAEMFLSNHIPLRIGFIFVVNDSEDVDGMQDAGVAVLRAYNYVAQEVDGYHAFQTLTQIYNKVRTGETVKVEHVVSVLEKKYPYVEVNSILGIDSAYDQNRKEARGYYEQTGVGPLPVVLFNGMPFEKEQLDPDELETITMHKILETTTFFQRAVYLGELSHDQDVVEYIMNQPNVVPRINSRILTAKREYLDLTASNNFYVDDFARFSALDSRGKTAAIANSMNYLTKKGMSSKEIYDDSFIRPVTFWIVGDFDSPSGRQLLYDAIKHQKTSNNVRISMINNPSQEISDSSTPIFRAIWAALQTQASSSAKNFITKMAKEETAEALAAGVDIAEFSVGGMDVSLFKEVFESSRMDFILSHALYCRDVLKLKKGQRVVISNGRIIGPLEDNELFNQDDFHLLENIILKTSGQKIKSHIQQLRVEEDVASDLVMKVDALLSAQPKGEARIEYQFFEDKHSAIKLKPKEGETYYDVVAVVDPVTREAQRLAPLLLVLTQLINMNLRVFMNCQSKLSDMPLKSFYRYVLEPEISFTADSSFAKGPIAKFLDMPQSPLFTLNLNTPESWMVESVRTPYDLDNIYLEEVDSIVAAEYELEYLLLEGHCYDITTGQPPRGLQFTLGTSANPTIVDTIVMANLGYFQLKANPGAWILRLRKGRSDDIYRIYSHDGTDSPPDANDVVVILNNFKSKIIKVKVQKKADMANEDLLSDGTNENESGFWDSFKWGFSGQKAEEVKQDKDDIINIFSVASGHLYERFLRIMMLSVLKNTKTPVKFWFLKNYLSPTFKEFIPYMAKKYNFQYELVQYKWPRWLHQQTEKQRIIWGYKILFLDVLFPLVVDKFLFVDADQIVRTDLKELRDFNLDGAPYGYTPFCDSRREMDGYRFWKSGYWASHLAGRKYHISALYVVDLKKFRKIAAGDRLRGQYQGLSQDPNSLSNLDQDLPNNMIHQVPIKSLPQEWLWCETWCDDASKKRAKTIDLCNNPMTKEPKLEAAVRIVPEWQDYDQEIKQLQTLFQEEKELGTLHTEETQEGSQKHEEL

How the values were obtained:
[1] = tested on: NIT-1 cells in which insulin secretion regulation factor was forcibly expressed; assay: Insulin secretion by NIT-1 cells with forced expression of insulin secretion regulation factor (ELISA); format: cell-based, mouse; conditions: for amount of insulin secreted: FIG. 6C
[2] = tested on: wild type B6 mice; assay: Continuous sBac administration for 4 weeks in wild type B6 mice: body weight and pancreas
[3] = tested on: wild type B6 mice; assay: Blood insulin and glucose after sBac administration in wild type B6 mice; conditions: FIG. 7A
[4] = target: insulin secretion regulation factor (ATIS1) (Mus musculus, UniProt Q6P5E4); assay: Release of radiolabelled ATIS1 from insulin-immobilized agarose by test substance; format: binding
[5] = mice after 12 hours of fasting, relative to vehicle
[6] = mice immediately after food re-intake

For baccharin, the “promotion of insulin secretion” value ([1]; 10 mM substance, cultured 10 minutes, FIG. 6A) was “highly promote insulin secretion”, the “amount of insulin secreted” value ([1]; glucose 2.8 mM in medium, highest concentration of sBac) was “insulin secretion promotion was noted” and the “amount of insulin secreted” value ([1]; glucose 2.8 mM in medium, lower concentration of sBac) was “no changes in the amount of insulin secreted were observed”. For the same substance, the “amount of insulin secreted” value ([1]; glucose 22.2 mM in medium, highest concentration of sBac) was “insulin secretion was significantly promoted”, the “amount of insulin secreted” value ([1]; glucose 22.2 mM in medium, low concentration of sBac) was “almost no changes in insulin secretion were noted” and the “size of pancreatic β cells” value ([2]; 85 and 850 nmol/30 g body weight, day 28, FIG. 7C) was “No changes in the size of pancreatic β cells”. For the same substance, the “ratio of the Langerhans cells relative to the pancreas” value ([2]; 85 and 850 nmol/30 g body weight, day 28, FIG. 7D) was “no changes in the ratio”, the “changes in body weight with time” value ([2]; 85 or 850 nmol/30 g body weight, 4 weeks (28 days), vs vehicle, FIG. 7B) was “no mice that received sBac exhibited changes in body weight” and the blood glucose concentration [3, 5] was “no changes”. For the same substance, the blood insulin concentration [3, 5] was “no changes”, the blood glucose concentration [3, 6] was “blood glucose concentration correspondingly decreased” and the blood insulin concentration [3, 6] was “increased blood insulin concentration depending on the sBac concentration”. The “competition with insulin for insulin secretion regulation factor” value ([4]; autoradiography, FIG. 6B) was “competes with insulin” and the “shading of the band of ATIS1 (interaction with ATIS1)” value ([4]; silver staining, FIG. 6D) was “changed depending on the amount of sBac added”.
